Literature values in patent US9226893B2, “Method for storing silica-based material, package produced with the method and use of package for packaging of silica-based products” (DelSiTech Oy, priority 2006, dated 2016).

Conditions: after 2 months of aging (dry-aged, wash-aged or wet-aged), relative to solution

albumin: Human serum albumin entrapped in TEOS-derived silica gels (literature)
retained ligand binding ability: less than 15%
